Here are results for 7 molecules from patent US6362218B1, “Brefeldin A derivatives” (Purdue Research Foundation, priority 1997, dated 2002).

What all share (format): cell-based
In one series the test system is MDA-MB-435. Kind of series: NCI human cancer cell line screen, antiproliferative activity, Breast MDA-MB-435. The conditions noted are these: concentration corresponding to 50% growth inhibition, read-out: cytotoxicity GI50, Breast MDA-MB-435. Here is the method: (§1) The new synthesized brefeldin A prodrug candidates and analogs were examined for antiproliferative activity against human cancer cell lines in the National Cancer Institute screen, in which the activity of each compound was evaluated with approximately 55 different cancer cell lines of diverse tumor origins.

Another series concerns HOP-62. Kind of series: NCI human cancer cell line screen, antiproliferative activity, Lung HOP-62. Particulars: concentration corresponding to 50% growth inhibition, read-out: cytotoxicity GI50, Lung HOP-62. Here is the method: as §1
For another series, the system named is OVCAR-3. Kind of series: NCI human cancer cell line screen, antiproliferative activity, Ovarian OVCAR-3. Particulars: concentration corresponding to 50% growth inhibition, read-out: cytotoxicity GI50, Ovarian OVCAR-3. Here is the method:
as §1

For a further series, the system named is UACC-62. Kind of series: NCI human cancer cell line screen, antiproliferative activity, Melanoma UACC-62. The conditions noted are these: concentration corresponding to 50% growth inhibition, read-out: cytotoxicity GI50, Melanoma UACC-62. Here is the method: as §1
Another series relates to HCT-116. Kind of series: NCI human cancer cell line screen, antiproliferative activity, Colon HCT-116. The conditions noted are these: concentration corresponding to 50% growth inhibition, read-out: cytotoxicity GI50, Colon HCT-116. The protocol:
as §1

Another series deals with DU-145. Kind of series: NCI human cancer cell line screen, antiproliferative activity, Prostate DU-145. Particulars: concentration corresponding to 50% growth inhibition, read-out: cytotoxicity GI50, Prostate DU-145. Here is the method: as §1
The test system of another series is SN12C. Kind of series: NCI human cancer cell line screen, antiproliferative activity, Renal SN12C. Particulars: concentration corresponding to 50% growth inhibition, read-out: cytotoxicity GI50, Renal SN12C. Here is the method: as §1

Broadly, the GI50 is the concentration that inhibits growth by half. `CC1CCCC=CC2CC(O)CC2C(O)C(SCCN)CC(=O)O1` [Compound 9, 2,3-Dihydro-(3R)-(2′)-aminoethylthio)brefeldin A]: in the series with MDA-MB-435, the GI50 was 3.3 µM.
For the molecule `CC1CCCC=CC2CC(O)CC2C(O)C(SCCN(C)C)CC(=O)O1` [Compound 4, 2,3-Dihydro-(3R)-(2′-N,N-dimethylaminoethylthiol)brefeldin A], the GI50 with HOP-62 and in the series on OVCAR-3 was 0.54 µM in each case.
Regarding Brefeldin A 8 0-Succinate [Compound 22], the GI50 stood at 1.9 µM in the series on UACC-62; 17 µM in the series on HCT-116; 3.4 µM in the series on HOP-62; 3.3 µM in the series on OVCAR-3; 6.8 µM with DU-145.
As for `COC(=O)CS(=O)(=O)[C@@H]1CC(=O)OC(C)CCCC=CC2CC(O)CC2C1O` (stereo partly drawn) [Compound 27, 2,3-Dihydro(3R)-(methoxycarbonylmethylsulfonyl)brefeldin A], the GI50 in the series on SN12C amounted to 3.3 µM.
`CC1CCCC=CC2CC(O)CC2C(O)C(O)C(O)C(=O)O1` (stereo not drawn) [Compound 26, 2,3-Dihydro-2,3-dihydroxybrefeldin A]: in the series with HCT-116, the GI50 amounted to 3.4 µM.
Regarding `COC(=O)CSC1CC(=O)OC(C)CCCC=CC2CC(O)CC2C1O` [Compound 7, 2,3-Dihydro-(3R)-(methoxycarbonylmethylthiol)brefeldin A], the GI50 in the series on UACC-62 was found to be 6.8 µM.
Turning to `CC1CCCC=CC2CC(O)CC2C(O)[C@H](Sc2ccc(O)cc2)CC(=O)O1` (stereo partly drawn) [Compound 3, 2,3-Dihydro-(3R)-(4′-hydroxyphenylthio)brefeldin A], the GI50 in the series with MDA-MB-435 is 3.3 µM.
